Here are results for 1 compound from ChEMBL document CHEMBL5543159, “Discovery of an Ortho-Substituted N-Cyclopropylmethyl-7α-phenyl-6,14-endoethano-tetrahydronorthebaine Derivative as a Selective and Potent Kappa Opioid Receptor Agonist with Subsided Sedative Effect” (2024).

The chains behind the UniProt entries cited, without tags or fusion partners.
UniProt P33535, whole entry: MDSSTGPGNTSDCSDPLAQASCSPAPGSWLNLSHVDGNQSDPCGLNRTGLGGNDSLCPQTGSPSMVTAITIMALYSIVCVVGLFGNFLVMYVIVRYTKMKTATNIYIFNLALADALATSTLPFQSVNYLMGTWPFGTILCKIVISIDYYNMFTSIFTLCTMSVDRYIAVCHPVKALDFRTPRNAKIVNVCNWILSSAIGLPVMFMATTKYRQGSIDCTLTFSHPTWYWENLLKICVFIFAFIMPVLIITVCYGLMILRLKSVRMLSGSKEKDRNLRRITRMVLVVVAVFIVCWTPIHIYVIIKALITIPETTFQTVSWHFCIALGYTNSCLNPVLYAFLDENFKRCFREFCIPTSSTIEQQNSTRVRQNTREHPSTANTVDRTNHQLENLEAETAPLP
UniProt P41145, whole entry: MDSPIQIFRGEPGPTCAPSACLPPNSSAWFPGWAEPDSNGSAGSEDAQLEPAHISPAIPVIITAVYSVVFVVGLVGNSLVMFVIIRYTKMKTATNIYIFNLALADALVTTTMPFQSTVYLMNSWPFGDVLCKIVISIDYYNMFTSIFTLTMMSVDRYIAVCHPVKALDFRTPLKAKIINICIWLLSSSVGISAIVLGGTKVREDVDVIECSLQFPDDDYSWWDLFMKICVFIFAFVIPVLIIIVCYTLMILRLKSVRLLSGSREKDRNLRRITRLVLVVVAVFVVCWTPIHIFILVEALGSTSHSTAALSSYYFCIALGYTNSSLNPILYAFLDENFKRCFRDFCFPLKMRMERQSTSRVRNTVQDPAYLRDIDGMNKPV
UniProt P33533, whole entry: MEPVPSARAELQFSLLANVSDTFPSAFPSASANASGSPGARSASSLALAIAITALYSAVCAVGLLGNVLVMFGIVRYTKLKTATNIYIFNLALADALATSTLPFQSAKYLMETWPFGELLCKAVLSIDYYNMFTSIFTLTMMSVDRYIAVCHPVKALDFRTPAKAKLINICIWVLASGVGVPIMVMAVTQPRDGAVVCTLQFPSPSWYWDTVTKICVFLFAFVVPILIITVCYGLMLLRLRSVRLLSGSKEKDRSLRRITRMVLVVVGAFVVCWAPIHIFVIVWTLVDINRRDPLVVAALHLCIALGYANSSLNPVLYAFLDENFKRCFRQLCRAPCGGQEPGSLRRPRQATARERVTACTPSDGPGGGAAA

For orientation: pKi means the negative decadic logarithm of the Ki, by convention in mol/L.

In one assay the target is Mu-type opioid receptor (Rattus norvegicus, UniProt P33535). Briefly: Displacement of [3H]-DAMGO from rat MOR receptor expressed in CHO cell membrane assessed as inhibition constant incubated for 1 hrs by liquid scintillation counting method. Background: Displacement assays read how much labelled ligand stays bound in the presence of the test substance.
For assay [1], the target named is Kappa-type opioid receptor (Homo sapiens, UniProt P41145). As to the kind of experiment: Displacement of [3H]U69593 from human KOR expressed in CHO cells membrane assessed as inhibition constant incubated for 1 hrs by liquid scintillation counting method.
The target of assay [2] is Delta-type opioid receptor (Rattus norvegicus, UniProt P33533). As to the kind of experiment: Displacement of [3H]DPDPE from rat DOR expressed in CHO cells membrane assessed as inhibition constant incubated for 1 hrs by liquid scintillation counting method.

Structures are written as SMILES. pKi: −log10 of the molar value.

Turning to `CNc1ccccc1[C@H]1C[C@@]23CC[C@]1(OC)[C@@H]1Oc4c(OC)ccc5c4[C@@]12CCN(CC1CC1)[C@@H]3C5`, the values for the pKi (on Mu-type opioid receptor; in assay [1]; in assay [2]) were 7.54, 7.15 and 6.67, respectively.
